According to BindingDB's records for PubMed 36876904 (Perha Pharmaceuticals, 2023):
pIC50: −log10 of the molar value.

Amino acid sequences for entries named in this document (tags omitted). A change or cut given only in a name is not applied to a line headed by its entry.
UniProt Q9HAZ1: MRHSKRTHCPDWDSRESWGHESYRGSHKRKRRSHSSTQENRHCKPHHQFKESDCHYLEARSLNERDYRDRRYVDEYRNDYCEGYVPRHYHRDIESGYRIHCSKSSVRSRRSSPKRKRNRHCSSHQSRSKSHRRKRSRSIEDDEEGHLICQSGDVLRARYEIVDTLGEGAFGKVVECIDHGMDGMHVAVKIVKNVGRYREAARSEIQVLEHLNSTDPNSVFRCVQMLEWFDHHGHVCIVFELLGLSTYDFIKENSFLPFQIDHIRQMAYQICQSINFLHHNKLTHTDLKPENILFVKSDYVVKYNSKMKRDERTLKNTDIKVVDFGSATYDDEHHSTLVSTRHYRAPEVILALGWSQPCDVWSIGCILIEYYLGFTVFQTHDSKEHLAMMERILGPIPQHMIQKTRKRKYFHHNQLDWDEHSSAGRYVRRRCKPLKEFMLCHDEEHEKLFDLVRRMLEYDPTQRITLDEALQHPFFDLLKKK

Target: Dual specificity protein kinase CLK4 (Homo sapiens, UniProt Q9HAZ1)

- pIC50: < 5.00
Compound: NC(=NCCCCCCN=C(N)NC(N)=Nc1ccc(Cl)cc1)N=C(N)Nc1ccc(Cl)cc1 [N',N'''''-hexane-1,6-diylbis[N-(4-chlorophenyl)(imidodicarbonimidic diamide)]]
